Measured values published in US20100130514A1, “FUSED HETEROCYCLIC DERIVATIVE, PHARMACEUTICAL COMPOSITION COMPRISING THE DERIVATIVE, AND USE OF THE COMPOSITION FOR MEDICAL PURPOSES” (Kissei Pharmaceutical Co., Ltd., priority 2007, published 2010).

Sequences of proteins named here, by UniProt entry; tags and fusion partners are left off.
UniProt P30968, whole entry: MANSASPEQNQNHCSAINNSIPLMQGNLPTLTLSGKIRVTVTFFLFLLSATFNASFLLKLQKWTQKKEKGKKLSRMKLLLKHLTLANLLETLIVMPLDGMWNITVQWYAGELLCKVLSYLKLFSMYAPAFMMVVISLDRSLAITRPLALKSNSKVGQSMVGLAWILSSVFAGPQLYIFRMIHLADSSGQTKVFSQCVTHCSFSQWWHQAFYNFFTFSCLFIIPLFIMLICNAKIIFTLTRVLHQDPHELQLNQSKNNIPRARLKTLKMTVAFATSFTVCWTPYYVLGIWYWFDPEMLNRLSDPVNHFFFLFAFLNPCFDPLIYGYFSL

Key:
human GnRHR1 = human GnRHR1 (Homo sapiens, UniProt P30968); experiment: Inhibitory effect for the change of calcium levels in GnRH-stimulated cells (hGnRHR1#1 HEK293 cells); conditions: read-out: IC50 (drug concentration at which 50% GnRH-stimulated intracellular calcium flux was inhibited); HEK293 cells stably expressing human GnRHR1; 10 nM GnRH added; FLIPR Calcium Assay Kit
Excerpt: 1) Cloning and Construction of the Vector Expressing Human GnRH Receptor1 (GnRHR1)
Using cDNA derived from human pituitary (BECTON DICKINSON) as a template, the DNA fragment coding 45 to 1115 by of human GnRHR1 (Accession No. L03380), which was reported by Kakar et al., was amplified by PCR method and inserted into the multi-cloning site of pcDNA3.1(+) (Invitrogen). The DNA sequence inserted was perfectly matched to the previously reported sequence.
2) Establishment of Cell Line Stably Expressing Human GnRH Receptor1 HEK293 Cells
The expression vector of human GnRHR1 gene, was digested by XhoI into a linear DNA. The linear DNA was transfected into HEK293 cells by means of lipofection (Lipofectamine2000: Invitrogen). Neomycin resistant cell lines were selected by culture in the medium containing G418 (Invitrogen) at 1 mg/mL, and then the change of calcium levels in GnRH-stimulated cells was measured by the method described below.
3) Assay of Inhibitory Effect for the Change of Calcium Levels in GnRH-Stimulated Cells
Antagonizing effect of compounds for human GnRHR1 was evaluated by depression of calcium levels in GnRH-stimulated cells. hGnRHR1#1 cells were seeded into a 96-well culture plate at a density of 1.5×10^5 cells/well and cultured for a day. […] Then, intracellular calcium levels were determined under the following condition by using FLEX STATION (Molecular Devices). […]

[1] = Assay for oral absorbability: plasma drug concentration after oral administration; conditions: overnight fasted male SD rats, 3 mg/kg
Description: Assay for Oral Absorbability
1) Preparation of the Samples for Measurement of the Drug Concentration After Oral Administration
As experimental animal, overnight fasted SD rats (Charles River, male, 7 weeks of age, 170-210 g) were used. Three mg of a test compound was dissolved by adding 0.2 mL of N,N-dimethylacetoamide, 9.794 mL of 0.5% aqueous methylcellulose solution and 0.006 mL of 2N NaOH, and then 0.3 mg/mL solution was prepared. The body weights of rats were measured, and the solution of the test compound was administered orally at the dose of 10 mL/kg (3 mg/kg). The oral administration was performed with gastric tube for rat and 2.5 mL syringe. The sampling times for collection of blood were 15, 30, 60, 120, 240 and 360 minutes after the oral administration. The blood was centrifuged, and the plasma was used as the sample for measurement of the drug concentration in blood.
2) Measurement of the Drug Concentration
To 0.025 mL of the plasma obtained in 1) described above, 0.1 mL of an adequate internal standard material was added according to the usual method, and then deproteinization was performed by adding 0.875 mL of acetonitrile. After centrifugation, 0.005 mL of the supernatant was injected into LC-MS/MS. The drug concentration in plasma was measured by LC-MS/MS method under the conditions as follows. […]

- IC50 (human GnRHR1): 18 nM
- C360 (plasma drug concentration at 360 minutes after administration) [1]: 21
Compound: O=C(O)c1scc2[nH]c(=O)n(-c3cc(S(=O)(=O)N4CCCc5ccccc54)ccc3Cl)c(=O)c12
